Earlier results, collected in patent US4421767A, “Compounds and methods for treating depression” (priority 1982, dated 1983).

Key:
MAO-B = settings: literature; cited from earlier work
MAO = settings: literature; cited from earlier work

C#CCN(C)[C@H](C)Cc1ccccc1 [L-deprenyl]
preferential inhibition of MAO-B (MAO-B): preferentially inhibited
selectivity at lower versus higher dosages (MAO): selective inhibitors at lower dosages, but are not selective inhibitors at higher dosages
